Data from patent publication US4048334A, “Active derivatives of methylamino in therapeutic compositions and methods of use” (priority 1974, dated 1977).

Assays:
[1] = Toxico-pharmacological index (LD50 / effective dose in catatonia); settings: in vivo
[2] = test system: reserpine-induced and neuroleptic-induced catatonia; experiment: as above

With `CCCC(N)(CCC)CCC` the selectivity ratio [1] was ≥ 33.
In the case of `CCCC(N)(CCC)CCC` [Compound 1], the “Index LD50/ED100” value ([2]; ED100: 100% inhibition of the catatonia) is reported as 20 and the “toxico-pharmacological index LD50/ED50” value ([2]; curative treatment, neuroleptic-induced catatonia) is reported as 20.
